Molecules are shown by their SMILES.

Protein sequences, listed by entry. Tags and fused reporters are not part of them. Lines headed by an entry give the natural chain unless they say otherwise; changes in a name come on top.
UniProt O15379: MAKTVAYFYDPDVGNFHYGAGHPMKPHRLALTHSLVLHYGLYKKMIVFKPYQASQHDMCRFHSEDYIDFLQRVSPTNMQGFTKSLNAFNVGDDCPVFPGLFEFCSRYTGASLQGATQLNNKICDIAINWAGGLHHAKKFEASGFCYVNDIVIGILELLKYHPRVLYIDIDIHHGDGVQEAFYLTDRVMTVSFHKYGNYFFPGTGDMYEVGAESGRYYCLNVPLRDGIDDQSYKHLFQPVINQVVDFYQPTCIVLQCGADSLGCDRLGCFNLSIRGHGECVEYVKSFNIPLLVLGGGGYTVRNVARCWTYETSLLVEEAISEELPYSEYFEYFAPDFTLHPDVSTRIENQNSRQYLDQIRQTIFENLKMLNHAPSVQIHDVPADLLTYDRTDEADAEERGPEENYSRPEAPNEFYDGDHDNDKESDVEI

In the experiment the target is Histone deacetylase 3 (Homo sapiens, UniProt O15379). As to the kind of experiment: Inhibition of recombinant human HDAC3 after 60 mins by fluorescence assay.

A word on the IC50: it is the concentration that inhibits the measured activity by half. In the case of `C/C=C1\NC(=O)C(CS)NC(=O)[C@@H](C(C)C)NC(=O)C[C@@H](/C=C/CCS)OC(=O)[C@H](C(C)C)NC1=O` (single isomer, unassigned) [FR-135313], the IC50 turned out to be 4.8 nM.

The values above are taken from ChEMBL document CHEMBL3621100, “Discovery of Novel Class I Histone Deacetylase Inhibitors with Promising in Vitro and in Vivo Antitumor Activities” (J Med Chem, 2015).
